From article PMC3894639 (Pharmacogenetics and genomics, 2013)

Amino acid sequences for entries named in this document (tags omitted). A change or cut given only in a name is not applied to a line headed by its entry.
UniProt Q9Y6L6: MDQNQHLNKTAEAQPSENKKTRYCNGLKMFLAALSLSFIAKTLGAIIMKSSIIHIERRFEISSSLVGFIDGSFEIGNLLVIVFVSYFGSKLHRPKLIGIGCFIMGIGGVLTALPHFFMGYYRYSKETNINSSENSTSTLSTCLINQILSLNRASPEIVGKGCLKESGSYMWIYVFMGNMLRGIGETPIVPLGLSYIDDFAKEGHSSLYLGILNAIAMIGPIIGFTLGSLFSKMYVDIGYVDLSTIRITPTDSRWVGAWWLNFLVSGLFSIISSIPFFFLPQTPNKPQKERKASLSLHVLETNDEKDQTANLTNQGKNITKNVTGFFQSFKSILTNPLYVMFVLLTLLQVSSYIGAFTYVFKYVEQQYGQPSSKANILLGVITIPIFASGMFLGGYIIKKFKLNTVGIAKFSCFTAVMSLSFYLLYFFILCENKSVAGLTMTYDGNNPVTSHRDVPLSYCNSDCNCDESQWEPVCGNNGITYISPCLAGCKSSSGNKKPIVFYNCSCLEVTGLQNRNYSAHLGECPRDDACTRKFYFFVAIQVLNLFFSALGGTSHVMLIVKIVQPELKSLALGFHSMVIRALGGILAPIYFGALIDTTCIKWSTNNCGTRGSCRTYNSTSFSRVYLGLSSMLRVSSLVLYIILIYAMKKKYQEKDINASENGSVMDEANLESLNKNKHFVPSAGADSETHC

Assays:
OATP1B1 [1] = biological target: T1, OATP1B1 (Homo sapiens, UniProt Q9Y6L6); conditions: 5 nmol/l [3H]-CER; concentrations up to 100 µmol/l
OATP1B1 [2] = biological target: T1, OATP1B1; conditions: 20 nmol/l [3H]-ES; concentrations up to 100 µmol/l
OATP1B1 [3] = biological target: T1, OATP1B1; assay: Prediction of clinical drug-drug interactions; conditions: R=1+fu×Iin,max/IC50, ES as substrate; oral dose listed per drug in Table 3

CN(CCOc1ccc(CC2SC(=O)NC2=O)cc1)c1ccccn1 (stereo not drawn) [Rosiglitazone, Rosiglitazone-potassium salt]
Inhibition of OATP1B1-mediated uptake of cerivastatin (in words) (OATP1B1 [1]): inhibited
Inhibition of OATP1B1-mediated uptake of ES (in words) (OATP1B1 [2]): inhibited
R (ES) (OATP1B1 [3]): 1.00

Structures can show the parent of a compound that is named as a salt.
